The test system of the test is PICSCs. The test is described as follows: Growth and survival of PICSCs after drug treatment. It counts as cell-based, mouse. The conditions noted are these: 100 μM drug, 48 hours. The protocol:
The PICSCs cells were treated with 100 μM drug (suprapharmacological dose) for 48 hours, and their growth and survival were evaluated. […] Moreover, the in vitro testing strategies allows for a mechanistic study of such compounds.

For the substance “Erbitux: standard chemotherapeutic drug Erbitux (ERX)”, the “growth and survival of PICSCs” value is listed as “no significant effect”.
